{"sequences": {"note": "Amino acid sequences for entries named in this document (tags omitted). A change or cut given only in a name is not applied to a line headed by its entry.", "UniProt Q9P1W9": "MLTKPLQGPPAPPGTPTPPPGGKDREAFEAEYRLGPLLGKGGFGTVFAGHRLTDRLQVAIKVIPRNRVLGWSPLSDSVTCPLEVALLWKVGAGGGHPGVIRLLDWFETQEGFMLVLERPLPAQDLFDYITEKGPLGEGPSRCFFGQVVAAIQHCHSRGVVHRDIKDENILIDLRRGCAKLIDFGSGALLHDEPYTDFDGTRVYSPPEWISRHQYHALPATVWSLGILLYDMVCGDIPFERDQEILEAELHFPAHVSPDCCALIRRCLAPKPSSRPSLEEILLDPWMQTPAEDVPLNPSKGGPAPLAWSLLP"}, "source": "ChEMBL document CHEMBL1153342", "about": "(J Med Chem, 2009)", "biological_target": "Serine/threonine-protein kinase pim-2 (Homo sapiens, UniProt Q9P1W9)", "experiment": "Inhibition of Pim2 in presence of 1 uM ATP"}
{"smiles": "N[C@H]1CC[C@H](Nc2cncc(-c3cccc(/C=C/C(=O)O)c3)n2)CC1", "values": [{"measurement": "IC50", "value": 12, "unit": "nM"}]}
